From US20080200454A1, “CARBON-LINKED TETRAHYDRO-PYRAZOLO-PYRIDINE MODULATORS OF CATHEPSIN S” (priority 2007, published 2008) come the findings set out here.

Chains of the proteins cited; added tags and fusions are not shown. Residues count along the entry.
UniProt P25774, 115-331: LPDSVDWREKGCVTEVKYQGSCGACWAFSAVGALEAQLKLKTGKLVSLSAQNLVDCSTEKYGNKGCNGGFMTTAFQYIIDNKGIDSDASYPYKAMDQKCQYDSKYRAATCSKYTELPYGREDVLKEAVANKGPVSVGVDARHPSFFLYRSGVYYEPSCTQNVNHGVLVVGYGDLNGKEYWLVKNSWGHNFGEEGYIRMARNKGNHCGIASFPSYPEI

The IC50 is the concentration needed to halve the response being measured.

This assay concerns the target Recombinant human cathepsin S (CatS) (Homo sapiens, UniProt P25774). Nature of the assay: Recombinant human cathepsin S (CatS) inhibition assay, fluorogenic substrate Z-Valine-Valine-Arginine-AMC.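 Also: Baculovirus-expressed CatS in pH 5.0 sodium acetate buffer with DTT and NaCl, fluorescence read each minute over 20 min, inhibition derived from rate slope.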

For `CS(=O)(=O)N1CCc2c(c(-c3ccc(Cl)c(C#CCO)c3)nn2CCCN2CCOCC2)C1` [Example 44, 3-{2-Chloro-5-[5-methanesulfonyl-1-(3-morpholin-4-yl-propyl)-4,5,6,7-tetrahydro-1H-pyrazolo[4,3-c]pyridin-3-yl]-phenyl}-prop-2-yn-1-ol], the IC50 is 7.85 µM. The result for `O=C(CO)N1CCc2c(c(-c3ccc(Cl)c(C#Cc4ccc(Cl)cc4)c3)nn2CCCN2CCOCC2)C1` [Example 143, 1-[3-[4-Chloro-3-(4-chloro-phenylethynyl)-phenyl]-1-(3-morpholin-4-yl-propyl)-1,4,6,7-tetrahydro-pyrazolo[4,3-c]pyridin-5-yl]-2-hydroxy-ethanone] reads 0.22 µM.
